Source: patent US20240108601A1, “TREATMENT OF MENTAL DISORDERS” (GH Research Ireland Limited, priority 2022, published 2024)

Tests used:
[1] = system: human hepatocytes (Hμrel HumanPool co-culture); experiment: Metabolic stability in Hμrel human hepatocyte co-culture
[2] = system: human hepatocytes; experiment: Metabolite identification in human hepatocyte suspension; conditions: 5-MeO-DMT free base 10 μM, incubated up to 120 minutes
Method: For incubations with cryopreserved hepatocytes, the 2 mM stock solution was diluted with Leibovitz L-15 medium to a concentration of 20 μM or 2 μM. An aliquot (250 μL) of the 20 μM and 2 μM test substance formulations was added to each hepatocyte incubation sample (250 μL), as appropriate, so that the final test substance concentration in the incubations was 10 μM or 1 μM, respectively, and incubations contained less than 1% (v/v) solvent.
Incubations were performed at ca. 37° C. in a shaking water bath (total incubation volume 0.5 mL). For 1 μM, incubations were terminated after 0, 5, 10, 20, 30, 60 and 120 minutes, by the addition of ice-cold acetonitrile (0.5 mL).
The samples were vortex mixed and centrifuged at ca 13,000 rpm for 10 minutes at room temperature. […]
Prior to sample analysis a 100 μL aliquot of each sample was evaporated to near dryness under a steady stream of nitrogen at room temperature, and subsequently reconstituted in 50 μL of mobile phase A (0.1% formic acid in water). Each sample (0, 30 and 120-minute, 10 μM) was analysed using accurate mass LC-MS to determine relative levels of parent compound at each time-point, and determine the profile of metabolites formed. Appropriate blank and control samples were also analysed. The 10 and 60-minute, 10 μM incubation samples were not analysed and were stored at −80° C. […]

[3] = LC-MS/MS of 5-MeO-DMT, bufotenine and 5-MIAA in urine, serum and breastmilk of lactating PPD patient; infant exposure estimates; conditions: second patient
From the text: When determining the potential impact of maternal drug administration on a breastfed infant, it is standard practice to calculate the Relative Infant Dose (RID) (Bennett, P. N., and L. J. Notarianni. “Risk from drugs in breast milk: an analysis by relative dose.” Br J Clin Pharmacol 42.5 (1996): P673-4). The RID is the dosage (in μg/kg/day) the infant is exposed to by the intake of breast milk, divided by the dosage (in μg/kg/day) the mother receives.
Using estimates for daily intake of breast milk and the number of feeds as well as the measured breast milk concentrations the exposure of the infant can be determined.
For example, a published estimate for daily intake of breast milk as a function of infant weight is 150 ml/kg/day. To model the exposure, it is assumed that an infant of 5 kg is fed three times over 24 hours, receiving 250 ml breast milk each time.
The second patient was lactating, and, per the clinical trial protocol, breastmilk samples were collected pre-dosing and at multiple timepoints after administration of the last dose. […] Similar analyses were carried out on patient serum and urine samples.

Substance: 5-Methoxyindole acetic acid [5-MIAA]
- Predicted hepatic extraction ratio [1]: 2%
- Relative LC/MS peak area remaining ([1]; 1 μM Hepatocytes, 0 h): 100%
- Relative LC/MS peak area remaining ([1]; 1 μM Hepatocytes, 1 h): 98%
- Relative LC/MS peak area remaining ([1]; 1 μM Hepatocytes, 2 h): 100%
- Relative LC/MS peak area remaining ([1]; 1 μM Hepatocytes, 4 h): 99%
- Relative LC/MS peak area remaining ([1]; 1 μM Hepatocytes, 8 h): 95%
- Relative LC/MS peak area remaining ([1]; 1 μM Hepatocytes, 24 h): 99%
- Relative LC/MS peak area remaining ([1]; 1 μM Hepatocytes, 48 h): 88%
- Relative LC/MS peak area remaining ([1]; 1 μM Hepatocytes, 72 h): 82%
- Relative LC/MS peak area remaining ([1]; 1 μM Stromal cells, 0 h): 100%
- Relative LC/MS peak area remaining ([1]; 1 μM Stromal cells, 4 h): 103%
- Relative LC/MS peak area remaining ([1]; 1 μM Stromal cells, 8 h): 107%
- Relative LC/MS peak area remaining ([1]; 1 μM Stromal cells, 24 h): 108%
- Relative LC/MS peak area remaining ([1]; 1 μM Stromal cells, 48 h): 111%
- Relative LC/MS peak area remaining ([1]; 1 μM Stromal cells, 72 h): 135%
- Relative LC/MS peak area remaining ([1]; 10 μM Hepatocytes, 0 h): 100%
- Relative LC/MS peak area remaining ([1]; 10 μM Hepatocytes, 1 h): 97%
- Relative LC/MS peak area remaining ([1]; 10 μM Hepatocytes, 2 h): 100%
- Relative LC/MS peak area remaining ([1]; 10 μM Hepatocytes, 4 h): 103%
- Relative LC/MS peak area remaining ([1]; 10 μM Hepatocytes, 8 h): 96%
- Relative LC/MS peak area remaining ([1]; 10 μM Hepatocytes, 24 h): 96%
- Relative LC/MS peak area remaining ([1]; 10 μM Hepatocytes, 48 h): 86%
- Relative LC/MS peak area remaining ([1]; 10 μM Hepatocytes, 72 h): 75%
- Relative LC/MS peak area remaining ([1]; 10 μM Stromal cells, 0 h): 100%
- Relative LC/MS peak area remaining ([1]; 10 μM Stromal cells, 4 h): 101%
- Relative LC/MS peak area remaining ([1]; 10 μM Stromal cells, 8 h): 106%
- Relative LC/MS peak area remaining ([1]; 10 μM Stromal cells, 24 h): 97%
- Relative LC/MS peak area remaining ([1]; 10 μM Stromal cells, 48 h): 103%
- Relative LC/MS peak area remaining ([1]; 10 μM Stromal cells, 72 h): 115%
- Half-life ([1]; human hepatocytes, 1 μM): 15 400 min
- Relative Proportion of compounds identified ([2]; listed as 5-Methoxyindole acetic acid (5-MIAA)): 61%
- Relative Proportion of compounds identified ([2]; acetic acid): about 60%
- Fold lower breast milk concentration at 24 hours than at one hour [3]: ~400 fold
- Urine concentration relative to serum concentration ([3]; 2.5 hours): approx. 127 times
